The list shows a part of the results, in another mix than the full data. Some results for these compounds are left out of this collection, so the calls shown say nothing about other tests. Results filed as inconclusive are left out. Activity calls are given as the source filed them. How the source made its calls: active means clear falling dose curves in both reporters; inconclusive means both reporters move, but less clearly or upward; inactive means either reporter flat; the % is the NLuc reporter signal.
test: Cell-based coincidence reporter assay to measure PMP22 gene transcription in S16 Pmp22-F2sN cells - Primary screen; details: S16 Pmp22-F2sN Schwann cells (luciferase reporters placed in the Pmp22 gene), FLuc/NLuc coincidence luminescence, 24 h; at 57.5 µM (top of the series)
From the text: Assay Provider: Jim Inglese Ph.D. National Center for Advancing Translational Science, National Institutes of Health, Rockville, MD CMT is a heterogeneous group of neurological disorders that affect approximately 1 in 2,500 people. In particular, the most common form of CMT, CMT1A is genetically linked to the duplication of the PMP22 gene which leads to Schwann cell overexpression, thus manifesting itself as a typical case of dose-sensitive diseases. To identify small molecule compounds that can mediate the expression of PMP22 we developed a phenotypic assay screening strategy by utilizing genome editing techniques to construct Schwann cell lines containing novel reporter technology to monitor the transcriptional or translational regulation of PMP22. For high sensitivity we use a bioluminescent reporter system embedded in the 3' UTR of the PMP22 gene (S16(c9) Pmp22-F2sN) to identify compounds that inhibit gene expression. […] We can further discriminate the effect of all transcriptionally active molecules on PMP22 translation or stability with an assay that incorporates a short NLuc peptide (HiBiT) at the C-terminus of expressed PMP22 (S16(f8) PMP22-HiBiT) allowing alpha complementation and luminescence detection of membrane-associated PMP22 protein. These assays were screened against the NCATS Sytravon Library Collection. Miniaturization of these assays to 1536-well plate format for quantitative high throughput screening (qHTS) yielded rich data sets immediately from the qHTS assay (S16(c9) Pmp22-F2sN), when compared with data from a cell viability assay (Cell TiterGlo) to identify compounds that decreased the output signals through cellular toxicity to streamline the selection process of actives for subsequent characterization using the HiBiT assay (S16(f8) PMP22-HiBiT).
Cell-based coincidence reporter assay to measure PMP22 gene transcription in S16 Pmp22-F2sN cells PROTOCOL TABLE (format as described by Inglese J, Shamu CE and Guy RK. 2007) SEQUENCE No. (e.g., 1, 2, 3, etc.); […] (e.g., Cells, Incubation, Reagent, etc.); VALUE and DESCRIPTION. 1. Cells. Add 500-1,000 cells in 4 uL in growth media (DMEM High Glucose, No Phenol Red media + 10% heat-inactivated FBS + 1% Pen/Strep supplemented media) per well into Greiner 1536-well white/solid bottom high base, TC-treated plates. 2. Compounds. Library compounds and controls added at 23nL per well, transferred by Pin Tool. 3. Incubation. Incubate plates at 37C, 5% CO2, 95% RH for 24 h. 4. Reagent. Add 3.5uL Nano-Glo Dual-Luciferase Reporter Assay System reagent 1: Lysis and FLuc reagent per well of Greiner 1536-well plates. 5. Incubation. Incubate plates at room temperature for 10 min., protect from light. 6. Detector. FLuc luminescence measured using CCD-based camera (Viewlux). 7. Reagent. Add 3.5uL Nano-Glo Dual-Luciferase Reporter Assay System reagent 2: Stop&Glo reagent per well of Greiner 1536-well plates. 8. Incubation. Incubate plates at room temperature for 10 min., protect from light. 9. Detector. NLuc luminescence measured using CCD-based camera (Viewlux). […] Luminescence Read #1 (FLuc): Clear filter; Exposure = 10 sec, Gain = High, Speed = Slow, Binning = 2X 9. Luminescence Read #2 (NLuc): Clear filter; Exposure = 1 sec, Gain = High, Speed = Slow, Binning = 2X REFERENCES: 1. […] Yasgar A, Shinn P, Jadhav A, Auld DS, Michael S, Zheng W, Austin CP, Inglese J and Simeonov A, Compound Management for Quantitative High-Throughput Screening. […]
On the % scale 0 is the no-effect control and ±100 the full control effect.

Row | SMILES | activity change, negative = inhibition
1 | CC(C)COc1ccc(C(=O)NCC2(N(C)C)CCCCC2)cc1 | inactive: -34.3%
2 | CC(C)Oc1ccc(C(=O)NCC2(N(C)C)CCCCC2)cc1 | inactive: -7.71%
3 | Cc1cccc(C(=O)NCC2(N(C)C)CCCCC2)c1 | inactive: -5.08%
4 | CN(C)C1(CNC(=O)c2ccccc2[N+](=O)[O-])CCCCC1 | inactive: -10.7%
5 | CCOc1cccc(C(=O)NCC2(N(C)C)CCCCC2)c1 | inactive: -29.7%

From PubChem BioAssay AID1508649 (National Center for Advancing Translational Sciences (NCATS), 2021)
